# Experimental data reported in PMC11094875, “Cholecystokinin B receptor agonists alleviates anterograde amnesia in cholecystokinin-deficient and aged Alzheimer's disease mice” (Alzheimer's Research & Therapy, 2024).
# Sequences of proteins named here, by UniProt entry; tags and fusion partners are left off.
# UniProt P32238, whole entry, species assumed: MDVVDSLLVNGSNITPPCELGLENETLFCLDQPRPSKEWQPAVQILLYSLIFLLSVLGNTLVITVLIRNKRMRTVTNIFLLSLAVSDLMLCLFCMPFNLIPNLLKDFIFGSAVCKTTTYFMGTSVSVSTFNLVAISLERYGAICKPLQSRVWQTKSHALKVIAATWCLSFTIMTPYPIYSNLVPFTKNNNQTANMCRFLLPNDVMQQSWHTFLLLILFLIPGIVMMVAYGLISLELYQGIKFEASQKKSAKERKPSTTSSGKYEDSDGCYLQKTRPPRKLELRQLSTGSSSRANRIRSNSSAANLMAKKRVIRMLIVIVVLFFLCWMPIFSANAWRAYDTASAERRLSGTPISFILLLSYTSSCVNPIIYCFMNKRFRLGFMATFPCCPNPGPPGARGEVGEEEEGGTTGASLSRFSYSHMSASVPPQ
# Assays:
# CCKAR = target: T1, CCKAR (Homo sapiens, UniProt P32238); experiment: In vitro calcium imaging assay, CHO-CCKAR cells; assay type: cell-based
# T1 construct: expressed in transfected cells; host or cells: CHO cells overexpressing CCKAR
# CCKBR = target: T2, CCKBR (Homo sapiens, UniProt P32239); experiment: In vitro calcium imaging assay, CHO-CCKBR cells; assay type: cell-based; conditions: read-out: 100% CCK8s maximal response
# T2 construct: expressed in transfected cells; host or cells: CHO CCKBR cell line
# T2 sequence (P32239 1-447): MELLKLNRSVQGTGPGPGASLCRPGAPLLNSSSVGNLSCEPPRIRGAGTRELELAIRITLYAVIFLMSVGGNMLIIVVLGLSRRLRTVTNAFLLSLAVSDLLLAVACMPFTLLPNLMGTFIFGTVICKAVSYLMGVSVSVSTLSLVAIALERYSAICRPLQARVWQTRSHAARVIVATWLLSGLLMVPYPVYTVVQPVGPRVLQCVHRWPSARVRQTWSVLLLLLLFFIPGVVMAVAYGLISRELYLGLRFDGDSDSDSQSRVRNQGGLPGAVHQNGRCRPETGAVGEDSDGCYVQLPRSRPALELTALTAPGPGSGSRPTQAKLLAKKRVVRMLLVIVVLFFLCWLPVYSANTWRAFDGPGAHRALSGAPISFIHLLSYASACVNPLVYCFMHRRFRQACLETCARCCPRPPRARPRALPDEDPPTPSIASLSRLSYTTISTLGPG
# [1] = after i.p. injection ref 26; cited from earlier work
smiles,measurement,setting,value
"CSCC[C@H](NC(=O)[C@@H](N)Cc1c[nH]c2ccccc12)C(=O)N[C@@H](CC(=O)O)C(=O)N[C@@H](Cc1ccccc1)C(N)=O [CCK-4, CCK tetrapeptide]",EC50,"CCKAR; CHO-CCKAR cells, Fluo-8 calcium assay, mean ± SEM",2.27 ± 0.493 µM
same,Emax,CCKAR; read-out: 100% CCK8s maximal response,48.1 ± 3.42%
same,Emax,CCKBR,91.3 ± 6.37%
same,blood–brain barrier penetration,[1],can penetrate the blood–brain barrier
